# Apparent affinities of Ab-95 variants for a coronavirus HR2 peptide

Target peptide (SARS-CoV-2 spike, HR2 region): PDVDLGDISGINAS

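AAYL52 was designed without a model: most single CDR substitutions and a random sample of double and triple ones. In AlphaSeq, yeast of one mating type display the scFv and yeast of the other type display the target. Mating (16 h, 30 °C) was followed by selection of diploids and sequencing of their barcodes. Scores were corrected for input abundance and mapped to Kd with protein pairs of known affinity run in the same pool. The assay was run in three technical replicates.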

The variants keep the heavy chain, the linker and the frameworks of Ab-95 (scFv order VH, three GGGGS repeats, VL).
VH: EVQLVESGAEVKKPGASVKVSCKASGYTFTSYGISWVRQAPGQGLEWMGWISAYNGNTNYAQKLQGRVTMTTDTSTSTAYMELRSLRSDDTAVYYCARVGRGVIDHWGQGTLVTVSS
VL: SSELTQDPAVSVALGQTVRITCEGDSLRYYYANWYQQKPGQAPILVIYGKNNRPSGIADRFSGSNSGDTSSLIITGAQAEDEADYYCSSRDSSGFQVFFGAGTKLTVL

Substitutions are numbered in sequence along the VL above, starting at 1 (not Kabat). Values are log10 of the apparent Kd in nM; lower means stronger binding. An entry "n.d." has no value in the source: the pair was not observed among the diploids in that replicate. This suggests poor binding but is not conclusive. In this assay the parent's reference entry averaged 2.31; its copy inside this library read 2.25.

| # | changes | log10 Kd, replicates | empty controls |
|---|---|---|---|
| 1 | D25I K50Y G94V | 4.20 3.50 3.64 | 6 of 9 (4.14) |
| 2 | L27D S93P G94Y | 3.65 3.40 3.54 | 1 of 9 (3.20) |
| 3 | F95H V97N F98E | 2.26 2.30 2.19 | 2 of 9 (4.60) |
| 4 | E23G S26C R90F | n.d. 3.99 4.10 | 5 of 9 (4.29) |
| 5 | S26W R90M G94Q | 3.16 4.58 3.86 | 2 of 9 (3.82) |
| 6 | Y31N R53W P54C | 3.73 4.82 n.d. | 3 of 9 (4.24) |
| 7 | Y29L K50G P54D | 3.52 n.d. n.d. | 1 of 9 (4.63) |
| 8 | N52L P54L R90F | 4.39 n.d. n.d. | 3 of 9 (3.85) |
| 9 | D25C A32E N51K | 4.68 3.74 n.d. | 2 of 9 (3.20) |
| 10 | S26Y S89N R90V | n.d. 4.36 n.d. | 2 of 9 (4.29) |
| 11 | S26T G49C S89F | 3.95 n.d. n.d. | 1 of 9 (3.68) |
| 12 | R28G R53K R90E | n.d. n.d. n.d. | 0 of 9 |
| 13 | S26D Y31V N33C | 4.16 n.d. 3.91 | 6 of 9 (4.46) |
| 14 | D25G K50F P54K | n.d. n.d. n.d. | 0 of 9 |
| 15 | N51L S89M | 5.41 5.44 n.d. | 4 of 9 (3.37) |
| 16 | Y31R G49H G94D | n.d. n.d. n.d. | 1 of 9 (3.04) |
| 17 | E23L D91T G94V | 3.66 n.d. 3.61 | 2 of 9 (3.94) |
| 18 | L27E Y29H D91W | 4.29 3.92 4.44 | 5 of 9 (3.76) |
| 19 | E23Q G24C R28T | 3.02 3.18 3.16 | 2 of 9 (4.40) |
| 20 | Y31R N52F R53T | 2.69 2.33 2.75 | 1 of 9 (4.41) |
| 21 | S89K S92L F95H | 1.81 1.76 2.42 | 1 of 9 (3.92) |
| 22 | L27G N51L S93W | n.d. n.d. n.d. | 1 of 9 (3.65) |
| 23 | R28V Y29C | 3.71 4.85 n.d. | 4 of 9 (3.58) |
| 24 | E23Y A32L N33C | n.d. n.d. n.d. | 1 of 9 (3.79) |
| 25 | N51G S88E D91A | n.d. n.d. n.d. | 2 of 9 (3.53) |
| 26 | E23W D25R Y31L | n.d. n.d. n.d. | 1 of 9 (3.39) |
| 27 | Y31C G94C Q96F | n.d. n.d. n.d. | 3 of 9 (3.98) |
| 28 | R53T | 2.45 2.69 2.31 | 4 of 9 (3.29) |
| 29 | E23K Y29W P54D | 2.45 2.31 2.06 | 6 of 9 (3.81) |
| 30 | D25V P54A S93T | 1.92 1.81 1.67 | 3 of 9 (4.17) |
| 31 | F95W Q96I V97E | 2.23 2.13 2.13 | 2 of 9 (4.07) |
| 32 | E23V R53Y S55V | n.d. 3.22 4.48 | 6 of 9 (4.17) |
| 33 | Y31T N51K Q96Y | n.d. 3.62 4.03 | 5 of 9 (3.86) |
| 34 | G24S A32F S55F | 3.13 2.97 3.37 | 5 of 9 (3.82) |
| 35 | P54D G94D F95G | 3.17 3.00 3.58 | 5 of 9 (4.05) |
| 36 | G24D R53F S93D | 4.68 n.d. n.d. | 3 of 9 (3.51) |
| 37 | R53I F95L F98P | 4.16 3.00 3.28 | 3 of 9 (3.27) |
| 38 | G24D A32L G49I | 4.18 5.47 4.10 | 5 of 9 (4.06) |
| 39 | N33D N51I F95W | 4.23 n.d. n.d. | 0 of 9 |
| 40 | D25K N52H F95H | 3.29 3.95 n.d. | 1 of 9 (4.24) |
| 41 | S26F N33M N51G | 3.57 n.d. n.d. | 4 of 9 (4.09) |
| 42 | E23T G24R N33C | 4.19 n.d. n.d. | 1 of 9 (2.60) |
| 43 | E23G G49E S55H | 3.23 3.35 3.64 | 4 of 9 (4.05) |
| 44 | R90I S93W F98E | 3.78 2.83 2.95 | 1 of 9 (3.67) |
| 45 | N33D G49A R53L | 4.17 n.d. n.d. | 3 of 9 (3.83) |
| 46 | D25A Y31C | 2.21 2.66 2.23 | 3 of 9 (4.24) |

The first 4 variants above that were never detected:

| changes | log10 Kd, replicates | empty controls |
|---|---|---|
| R28G R53K R90E | n.d. n.d. n.d. | 0 of 9 |
| D25G K50F P54K | n.d. n.d. n.d. | 0 of 9 |
| Y31R G49H G94D | n.d. n.d. n.d. | 1 of 9 (3.04) |
| L27G N51L S93W | n.d. n.d. n.d. | 1 of 9 (3.65) |

Background: pairings of library AAYL52 with three empty control strains gave a value in 28% of cases (median 3.91, 5th percentile 2.90). Values in that range, when seen in few replicates, are hard to tell from nonspecific mating. For each scFv, signals with the empty controls are counted beside the result, with their mean in brackets.

From the AlphaSeq antibody data of Engelhart et al. 2022 (doi:10.1038/s41597-022-01779-4), copy in the FLAb collection.